Reference: patent US20220233523A1, “ANTIBIOTIC POTENTIATION FOR NONTUBERCULOUS MYCOBACTERIAL DISEASE” (priority 2019, published 2022)

Tested on: MAH104 biofilms
Type: cell-based, Mycobacterium avium subsp hominissuis 104 (MAH104)
Settings: Biolog PM1/PM2A plates
Procedure: Metabolic phenotype study was performed with planktonic and biofilm cultures using the 96-well plates PM1 and PM2A (BIOLOG™, Hayward, Calif.). The assays with planktonic cells and biofilms were made at the same time. Each plate contains carbon substrates and one negative control well, in which the bacteria is tested without any substrate. The tests with planktonic and biofilm cultures were performed at the same time and the culture inoculum have the same number of passages. […] The experiments were made as an end-point assay.
The cultures of biofilms were established for 7 days in regular polystyrene 96 well plates, not in PM Biolog plates, as described above with a minor difference. […] (total of 14 days of biofilm incubated at 37° C.). To obtain spectrophotometric measurements from biofilm cultures (O.D.590 nm), the plate was centrifuged for 20 minutes at 3500 rpm at 20° C., which reduce bacteria interference with the readings, and biofilm supernatant was transferred to a new 96 well plates for O.D.590 nm measurement.
Experiments were performed three times as an end-point assay. […] Abiotic reductions of the Redox dye were assessed through adding bacteria-free GN/GP-IF-0a fluid in the wells. […]

## O=C(O)CCC(=O)C(=O)O [α-Keto-Glutaric acid]
  metabolized by biofilm cultures: unable to metabolize
